The values that follow come from patent US12324893B2, “Triptan microporation delivery system” (PassPort Technologies, Inc., priority 2019, dated 2025).

The Tmax is the time from dosing to the highest level.

The data set is described as follows: Administration route study in hairless rats with Sumatriptan Succinate (Example 10). To be noted: Group 4: 6 mg free base API per 100 μL head of saline, SC injection. As to the method: In this study, four groups of hairless rats were tested under the following conditions: (1) Group 1 (3 mg free base API, Suc: 0.5 mg, AA: 1 mg); (2) Group 2 (6 mg free base API, Suc: 0.5 mg, AA: 1 mg); (3) Group 3 (9 mg free base API, Suc: 0.5 mg, AA: 1 mg); and (4) Group 4 (6 mg free base API per 100 μL head of saline).
The given bioavailability of Table 18 is relative bioavailability against SC injection.

Structures are written as SMILES.

For the compound `CNS(=O)(=O)Cc1ccc2[nH]cc(CCN(C)C)c2c1` [Sumatriptan Succinate], the Tmax worked out at 4.8 min.
